The source of these data is patent US20060252677A1 (published 2006).

The target in the assay is T1, fusion protein of Protein-X (novel PSD, clone hj02537) with a 6x His-tag (human, UniProt Q5T2T1 1-576).
T1 construct: Used as crude soluble E. coli extract (1% Triton X extraction buffer) in the Overlay assay; fusion band approx. 65.8 kDa; also called 6x His-tag fusion protein of the novel PSD; pDEST17/hj02537 #11 product; not shown: N-terminal 6x His-tag and linker encoded by vector pDEST17
T1 sequence: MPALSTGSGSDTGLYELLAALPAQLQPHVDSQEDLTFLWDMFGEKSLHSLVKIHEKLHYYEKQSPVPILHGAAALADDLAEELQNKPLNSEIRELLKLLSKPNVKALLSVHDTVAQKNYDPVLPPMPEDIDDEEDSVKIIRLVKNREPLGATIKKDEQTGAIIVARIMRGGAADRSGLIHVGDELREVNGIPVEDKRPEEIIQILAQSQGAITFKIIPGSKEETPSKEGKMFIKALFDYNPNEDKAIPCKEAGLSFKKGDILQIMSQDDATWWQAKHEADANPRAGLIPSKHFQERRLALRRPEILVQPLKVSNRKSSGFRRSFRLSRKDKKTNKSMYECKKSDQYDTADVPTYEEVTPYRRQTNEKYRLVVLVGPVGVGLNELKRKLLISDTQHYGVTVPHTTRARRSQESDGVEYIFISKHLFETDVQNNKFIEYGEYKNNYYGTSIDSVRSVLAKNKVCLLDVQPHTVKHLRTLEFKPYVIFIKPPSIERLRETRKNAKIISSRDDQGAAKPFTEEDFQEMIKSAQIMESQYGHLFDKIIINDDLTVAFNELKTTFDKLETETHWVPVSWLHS
As to the kind of experiment: Overlay method on blotted GST, detection with anti-His antibody. The method, then: Subsequently, 3 ml of 1 mM PMSF/TBS-T was added to 20 μl of sample containing Protein-X, prepared as described above and 40 μl of extraction buffer, or to 60 μl of sample containing the Protein-X mutant prepared as described above, to make a mixture. As a control, a mixture obtained by adding 3 ml of 1 mM PMSF/TBS-T to 60 μl of extraction buffer was used. Each mixture was used and allowed to react with each of the transfer membranes for 2 hours at 4° C. to bind thereto. Thereafter, a 5-minute wash with TBS-T was performed three times at room temperature, and the membranes were blocked again with 5% skim milk/TBS-T for 1 hour at room temperature. After blocking, a mouse anti-His antibody (Amersham Pharmacia Biotech) was diluted 1000-fold with 5% skim milk/TBS-T and added; and this composition was allowed to react for 1 hour at room temperature. After the reaction, the transfer membranes were washed using TBS-T for 10 minutes at room temperature; the wash was performed three times; then a secondary antibody (anti-mouse IgG antibody-HRP) (Cell Signaling) was diluted 3000-fold with 5% skim milk/TBS-T, then added and allowed to react for 1 hour at room temperature. After that, a 10-minute wash with TBS-T was performed three times at room temperature. Thereafter, a signal was detected using the ECL kit and Hyper film.

B1: GST (glutathione S-transferase) expressed alone from pGEX-4T-3 (other, UniProt P08515 1-218, looked up)
chain: MSPILGYWKIKGLVQPTRLLLEYLEEKYEEHLYERDEGDKWRNKKFELGLEFPNLPYYIDGDVKLTQSMAIIRYIADKHNMLGGCPKERAEISMLEGAVLDIRYGVSRIAYSKDFETLKVDFLSKLPEMLKMFEDRLCHKTYLNGDHVTHPDFMLYDALDVVLYMDPMCLDAFPKLVCFKKRIEAIPQIDKYLKSSKYIAWPLQGWQATFGGGDHPPK
notes: Negative control on the blot in the Overlay assay
On to B1, for which the binding result is listed as “no binding”.
